Source: US20030130484A1, “Inhibitors and disassemblers of fibrillogenesis” (priority 2001, published 2003)

The chains behind the UniProt entries cited, without tags or fusion partners. Residues count along the entry.
UniProt P05067, 672-711: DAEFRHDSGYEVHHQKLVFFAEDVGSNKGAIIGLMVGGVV

Target: Aβ40 (Homo sapiens, UniProt P05067)
Assay: Inhibition of Aβ40 fibrillogenesis, thioflavin T fluorescence assay
Assay type: biochemical

For `CC(=O)N[C@@H](CCCCN)C(=O)N(C)[C@@H](CC(C)C)C(=O)N[C@H](C(=O)N(C)[C@@H](Cc1ccccc1)C(=O)N[C@@H](Cc1ccccc1)C(N)=O)C(C)C` [Aβ16-20m, Ac—NH—K(me-L)V(me-F)F—CONH2], the “Inhibition ICmax” value was 100 and the “Inhibition of Fibrilogenesis ICmax” value was 100%.
